Experimental data taken from patent US20180344768A1, “NK CELL-BASED THERAPY” (Onkimmune Limited, priority 2016, published 2018).

Test system: p-STAT3, p-SHP1, p-SHP2, p-P44/42
Assay: IL-6 / IL-2 signaling in KHYG-1 cells, gel electrophoresis
Assay type: cell-based, human
Conditions: KHYG-1 cells starved of IL-2 for 6 hours, cytokine alone (IL-2 10 ng/mL or IL-6 100 ng/mL)
Source text: PE labeled mouse anti-human CD126 (IL-6 receptor alpha chain) (Catalog: 551850), PE labeled mouse anti-human CD130 (gp130, IL-6 receptor-associated signal transducer) (Catalog #:555757), PE-labeled Mouse IgG1 k isotype control (Catalog: 555749), APC-labeled mouse anti-human CD2 (Catalog: 560642), FITC-labeled mouse anti-human CD2 (Catalog: 555326), APC-labeled mouse anti-human PD-L1 (Catalog: 563741) and APC-labeled mouse anti-human PD-L2 (Catalog: 557926) were bought from BD Pharmingen. APC-labeled mouse anti-human PD1 antibody (Catalog: 329907) was bought from Biolegend. Phosphor-Stat3(Ser727) mouse mAb (Catalog:9136), Phosphor-Shp-1(Tyr564) rabbit mAb (Catalog; 8849), Phosphor-Shp-2(Tyr580) rabbit mAb (Catalog: 5431), Phospho-p44/42 MAPK (Erk1/2) (Thr202/Tyr204) rabbit mAb (Catalog: 4370) and p44/42 MAPK (Erk1/2) rabbit mAb were bought from Cell Signaling Technology. Phosphor-Stat3(Tyr705) mouse mAb (Catalog: sc-81523) and rabbit anti-human Stat3 polyclonal antibody (Catalog: sc-7179) were bought from Santa Cruz Biotechnology. Mouse anti-beta actin (Catalog: A5441) was bought from SIGMA-ALDRICH. Functional IL-6 blocking antibody (Catalog: 501110) and the related isotype control antibody (Catalog: 400414) were bought from Biolegend.
KHYG-1 cells were cultivated and maintained as mentioned above. When testing the effects of IL-6 alone, KHYG-1 cells were starved in RPMI160 medium supplemented with 10% FBS (no IL-2) for 6 hours, then stimulated with 10 ng/mL of IL-2 and/or 100 ng/mL of IL-6.

IL-2: Recombinant Human IL-2 (Catalog: 200-02) from PEPROTECH
p-P44/42: activated | p-SHP1: decreased expression | p-SHP2: decreased expression | p-STAT3: activated
